Test results: patent US3980522A, “Production of a new antibiotic, calvatic acid” (Zaidan Hojin Biseibutsu Kagaku Kenkyu Kai, priority 1973, dated 1976)
Values after ≈ are worked out from the molar mass of the structure shown.

What was measured:
[1] = test system: Shigella sonnei 191-66; test: Antimicrobial spectrum, agar dilution MIC; type: cell-based; settings: 19166, agar dilution method
[2] = test system: Proteus vulgaris OX 19; test: Antimicrobial spectrum, agar dilution MIC; type: cell-based; settings: Proteus vulgaris, OX19
[3] = test system: Helminthosporium oryzae; test: Antimicrobial spectrum, agar dilution MIC; type: cell-based; settings: Bipolaris oryzae
[4] = test system: Salmonella typhi T-63; test: Antimicrobial spectrum, agar dilution MIC; type: cell-based; settings: Salmonella enterica
[5] = test system: Candida pseudotropicalis NI 7494; test: Antimicrobial spectrum, agar dilution MIC; type: cell-based; settings: Kluyveromyces marxianus, NI7494, agar dilution method
[6] = test system: Bacillus cereus ATCC 10702; test: Antimicrobial spectrum, agar dilution MIC; type: cell-based; settings: ATCC10702, agar dilution method
[7] = test system: Escherichia coli K-12; test: Antimicrobial spectrum, agar dilution MIC; type: cell-based; settings: K12; Escherichia coli K-12; agar dilution method; read-out: MIC
[8] = test system: Pyricularia oryzae; test: microbe, parasite or virus in culture; type: cell-based
[9] = test system: Proteus rettgeri GN 311; test: Antimicrobial spectrum, agar dilution MIC; type: cell-based; settings: Providencia rettgeri, GN311, agar dilution method
[10] = test system: Micrococcus flavus FDA 16; test: Antimicrobial spectrum, agar dilution MIC; type: cell-based; settings: Micrococcus flavus, FDA16
[11] = test system: Klebsiella pneumoniae PCI 602; test: Antimicrobial spectrum, agar dilution MIC; type: cell-based; settings: PCI602, agar dilution method
[12] = test system: Staphylococcus aureus Terajima; test: Antimicrobial spectrum, agar dilution MIC; type: cell-based; settings: agar dilution method
[13] = test system: Cryptococcus neoformans NI 7496; test: Antimicrobial spectrum, agar dilution MIC; type: cell-based; settings: NI7496, agar dilution method
[14] = test system: Bacillus subtilis NRRL B-558; test: Antimicrobial spectrum, agar dilution MIC; type: cell-based; settings: NRRLB558, agar dilution method
[15] = test system: Saccharomyces cerevisiae; test: Antimicrobial spectrum, agar dilution MIC; type: cell-based; settings: agar dilution method
[16] = Solubility in solvents; type: physicochemical
[17] = test system: Corynebacterium bovis 1810; test: Antimicrobial spectrum, agar dilution MIC; type: cell-based; settings: Corynebacterium bovis, 1810
[18] = test system: Sarcina lutea PCI 1001; test: Antimicrobial spectrum, agar dilution MIC; type: cell-based; settings: Micrococcus luteus, PCI1001, agar dilution method
[19] = test system: Candida albicans 3147; test: Antimicrobial spectrum, agar dilution MIC; type: cell-based; settings: agar dilution method
[20] = test system: Mycobacterium phlei; test: Antimicrobial spectrum, agar dilution MIC; type: cell-based; settings: Mycolicibacterium phlei, agar dilution method
[21] = test system: Staphylococcus aureus Smith; test: Antimicrobial spectrum, agar dilution MIC; type: cell-based; settings: Staphylococcus aureus
[22] = physchem; settings: water
[23] = test system: Mycobacterium smegmatic ATCC 607; test: Antimicrobial spectrum, agar dilution MIC; type: cell-based; settings: ATCC607, agar dilution method
[24] = test system: Candida krusei NI 7492; test: Antimicrobial spectrum, agar dilution MIC; type: cell-based; settings: Pichia kudriavzevii, NI7492, agar dilution method
[25] = test system: red disease (Aeromonas sp.) of loaches; test: Preventive and curative effect against red disease of loaches; type: in vivo
[26] = test system: Candida Yu-1200; test: Antimicrobial spectrum, agar dilution MIC; type: cell-based; settings: YU1200, agar dilution method
[27] = test system: Pseudomonas aeruginosa A3; test: Antimicrobial spectrum, agar dilution MIC; type: cell-based; settings: agar dilution method
[28] = test system: Pellicularia filamentosa; test: Antimicrobial spectrum, agar dilution MIC; type: cell-based; settings: agar dilution method
[29] = test system: Escherichia coli NIHJ; test: Antimicrobial spectrum, agar dilution MIC; type: cell-based; settings: agar dilution method

Structure (SMILES): N#CN=[N+]([O-])c1ccc(C(=O)O)cc1 [calvatic acid, p-carboxyphenylazoxycarbonitrile]
- MIC [1]: 6.25 µg/mL (≈ 32.7 µM)
- MIC [2]: 6.25 µg/mL (≈ 32.7 µM)
- MIC [3]: > 100 µg/mL
- MIC [4]: 12.5 µg/mL (≈ 65.4 µM)
- MIC [5]: > 100 µg/mL
- MIC [6]: 3.12 µg/mL (≈ 16.3 µM)
- MIC [7]: 25 µg/mL (≈ 131 µM)
- MIC [8]: > 100 µg/mL
- MIC [9]: 100 µg/mL (≈ 523 µM)
- MIC [10]: 3.12 µg/mL (≈ 16.3 µM)
- MIC [11]: 12.5 µg/mL (≈ 65.4 µM)
- MIC [12]: 1.56 µg/mL (≈ 8.16 µM)
- MIC [13]: > 100 µg/mL
- MIC [14]: 12.5 µg/mL (≈ 65.4 µM)
- MIC [15]: > 100 µg/mL
- solubility ([16]; hexane): insoluble
- solubility ([16]; methanol, ethanol, propanol, butanol, dimethyl sulfoxide, acetone (b7), alkaline water): soluble
- MIC [17]: 3.12 µg/mL (≈ 16.3 µM)
- MIC [18]: 3.12 µg/mL (≈ 16.3 µM)
- MIC [19]: > 100 µg/mL
- MIC [20]: > 100 µg/mL
- MIC [21]: 6.25 µg/mL (≈ 32.7 µM)
- pKa [22]: 3.2
- MIC [23]: > 100 µg/mL
- MIC [24]: 100 µg/mL (≈ 523 µM)
- effect on infection of the fish by red disease ([25]; 5 mg./L): prevented but not cured
- effect on red disease ([25]; 10 mg./L): apparently cured
- time to death of all survivors after transfer to water containing no calvatic acid ([25]; Expt. 1, after 5 mg./L): ≤ 4 days
- survivors ([25]; Expt. 2, 10 mg./L, 10 breeding days): 85%
- survival of all survivors after transfer to water containing no calvatic acid ([25]; Expt. 2, after 10 mg./L): more than 30 days
- MIC [26]: > 100 µg/mL
- MIC [27]: > 100 µg/mL
- MIC [28]: 100 µg/mL (≈ 523 µM)
- MIC [29]: 6.25 µg/mL (≈ 32.7 µM)
